The target in one assay is PKC α (Homo sapiens, UniProt P17252). The assay is described as follows: PKC enzyme assay (BIOTRAK Protein kinase C enzyme assay system, 32P-ATP phosphorylation of peptide […]). The class given is biochemical. Conditions: read-out: Inhibition of PKC activity IC50 PKC α, Human Recombinant, test substance 1 nM-10 µM, 37°C, 15 minutes.
The target of the next assay is PKC β II (Homo sapiens, UniProt P05771). The description is as above. The assay is classed as biochemical. Conditions: for Ratio α/β: IC50 PKC α / IC50 PKC β II; for IC50: read-out: Inhibition of PKC activity IC50 PKC β II, Protein Kinase C, Human Recombinant, test substance 1 nM-10 µM, 37°C, 15 minutes.

The chains behind the UniProt entries cited, without tags or fusion partners. Residues count along the entry.
UniProt P05771, 1-673 isoform 2: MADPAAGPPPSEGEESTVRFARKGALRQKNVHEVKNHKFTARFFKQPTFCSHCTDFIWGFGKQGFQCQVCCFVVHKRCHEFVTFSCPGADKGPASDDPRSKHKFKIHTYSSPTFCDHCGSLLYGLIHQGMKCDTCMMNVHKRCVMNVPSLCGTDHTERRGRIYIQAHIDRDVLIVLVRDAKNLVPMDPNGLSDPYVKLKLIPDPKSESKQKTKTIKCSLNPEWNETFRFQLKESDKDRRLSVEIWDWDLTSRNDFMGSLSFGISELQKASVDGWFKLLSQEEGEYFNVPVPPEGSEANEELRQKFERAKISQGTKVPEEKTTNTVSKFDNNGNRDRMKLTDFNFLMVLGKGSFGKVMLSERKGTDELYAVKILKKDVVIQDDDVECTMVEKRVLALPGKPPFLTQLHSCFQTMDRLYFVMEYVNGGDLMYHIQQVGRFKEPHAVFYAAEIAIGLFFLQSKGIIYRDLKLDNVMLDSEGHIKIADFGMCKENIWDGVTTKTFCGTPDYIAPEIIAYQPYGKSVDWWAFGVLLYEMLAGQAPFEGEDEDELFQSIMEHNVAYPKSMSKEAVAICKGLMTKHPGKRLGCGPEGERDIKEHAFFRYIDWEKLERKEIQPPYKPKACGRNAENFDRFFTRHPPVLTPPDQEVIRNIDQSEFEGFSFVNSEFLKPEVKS

In general, IC50 refers to the midpoint of a concentration-inhibition curve.

Consider `O=C1NC(=O)C(c2c3n(c4ccccc24)CC(CN2CCCC2)CC3)=C1Nc1ccccc1` (stereo not shown), for which, on PKC α, the IC50 amounted to 355 nM. Moreover, on PKC β II, the “Ratio α/β” value is 118 and the half-inhibitory concentration (IC50) was determined as 3 nM.
The corresponding values for `NC(=O)C1CCN(C[C@H]2CCn3c(c(C4=C(Nc5ccccc5)C(=O)NC4=O)c4ccccc43)C2)CC1` are 247 nM, 62 and 4 nM.
The corresponding values for `NC(=O)C1CCN(CC2Cc3c(C4=C(Nc5ccccc5)C(=O)NC4=O)c4ccccc4n3C2)CC1` (stereo not shown) are 1220 nM, 77 and 16 nM.
As for `O=C1NC(=O)C(c2c3n(c4ccccc24)CC[C@H](CO)C3)=C1Nc1cccc(F)c1`, the IC50 on PKC α turned out to be 680 nM. Moreover, at PKC β II, the “Ratio α/β” value turned out to be 49 and the IC50 worked out at 14 nM.
With `O=C1NC(=O)C(c2c3n(c4ccccc24)CC[C@H](CO)C3)=C1Nc1ccc(O)cc1`, the IC50 at PKC α was 2100 nM. In addition, at PKC β II, the “Ratio α/β” value is reported as 84 and the IC50 is 25 nM.
Consider `O=C1NC(=O)C(c2c3n(c4ccccc24)CC[C@H](CN2CCC(O)CC2)C3)=C1Nc1ccccc1`, for which the IC50 on PKC α stood at 265 nM. At PKC β II, the “Ratio α/β” value was 53 and the IC50 is 5 nM.
As for `O=C1NC(=O)C(c2c3n(c4ccccc24)CC(Cn2cccn2)CC3)=C1Nc1ccccc1` (stereo not shown), the IC50 on PKC α came out at 5740 nM. At PKC β II, the “Ratio α/β” value worked out at 103 and the IC50 amounted to 56 nM.
With `O=C1NC(=O)C(c2c3n(c4ccccc24)CC(CN2CCSCC2)CC3)=C1Nc1ccccc1` (stereo not shown), the IC50 on PKC α amounted to 1930 nM. Besides, on PKC β II, the “Ratio α/β” value is recorded as 138 and the IC50 was determined as 14 nM.
Turning to `O=C1NC(=O)C(c2c3n(c4ccccc24)CC[C@@H](CO)C3)=C1Nc1ccccc1`, the 50% inhibitory concentration (IC50) on PKC α was found to be 2130 nM. Also, the “Ratio α/β” value at PKC β II is reported as 125.
Consider `O=C1NC(=O)C(c2c3n(c4ccccc24)CCCC(CO)C3)=C1Nc1ccccc1` (stereo not shown), for which the IC50 on PKC α was 4000 nM. On PKC β II, the “Ratio α/β” value was 174 and the IC50 was 23 nM.
In the case of `O=C1NC(=O)C(c2c3n(c4ccccc24)CC(CN2CCC(O)CC2)CC3)=C1Nc1ccccc1` (stereo not shown), the results for the IC50 at PKC α and at PKC β II were 497 nM and 6 nM, respectively. At PKC β II, the “Ratio α/β” value is recorded as 83.
Consider `CCN(CC)C[C@H]1CCn2c(c(C3=C(Nc4ccccc4)C(=O)NC3=O)c3ccccc32)C1`, for which, at PKC α, the IC50 is 910 nM. On PKC β II, the “Ratio α/β” value is 114 and the IC50 was 8 nM.
The corresponding values for `O=C1NC(=O)C(c2c3n(c4ccccc24)CC[C@H](CO)C3)=C1Nc1cccc(Cl)c1` are 1910 nM, 83 and 23 nM.
`CN(C)C[C@@H]1CCn2c(c(C3=C(Nc4ccccc4)C(=O)NC3=O)c3ccccc32)C1`: the IC50 on PKC α came out at 3060 nM. In addition, at PKC β II, the “Ratio α/β” value was found to be 122.
For `CNCC1CCc2c(C3=C(Nc4ccccc4)C(=O)NC3=O)c3ccccc3n2C1` (stereo not shown), the IC50 on PKC α worked out at 91 nM. Moreover, at PKC β II, the “Ratio α/β” value is recorded as 43 and the IC50 was 2 nM.
On to `O=C1NC(=O)C(c2c3n(c4ccccc24)CC(CN2CCCCC2)C3)=C1Nc1ccccc1` (stereo not shown), for which the IC50 is 795 nM at PKC α and 11 nM on PKC β II. For the same molecule, the “Ratio α/β” value on PKC β II came to 72.
For the molecule `O=C1NC(=O)C(c2c3n(c4ccccc24)CC[C@H](CN2CCCC2)C3)=C1Nc1ccccc1`, the results for the half-inhibitory concentration (IC50) on PKC α and on PKC β II were 170 nM and 3 nM, respectively. Further, the “Ratio α/β” value on PKC β II is 57.
As for `CCNCC1CCc2c(C3=C(Nc4ccccc4)C(=O)NC3=O)c3ccccc3n2C1` (stereo not shown), the IC50 at PKC α was 113 nM. For the same molecule, at PKC β II, the “Ratio α/β” value worked out at 33 and the IC50 was found to be 3 nM.
The corresponding values for `CN1CCN(CC2CCc3c(C4=C(Nc5ccccc5)C(=O)NC4=O)c4ccccc4n3C2)CC1` (stereo not shown) are 2600 nM, 113 and 23 nM.
Turning to `O=C1NC(=O)C(c2c3n(c4ccccc24)CC[C@H](Cn2ccnc2)C3)=C1Nc1ccccc1`, the IC50 on PKC α came to 725 nM; on PKC β II, 9 nM.
For `CN(C)C[C@H]1CCn2c(c(C3=C(Nc4ccccc4)C(=O)NC3=O)c3ccccc32)C1`, the IC50 on PKC α was determined as 96 nM. At PKC β II, the “Ratio α/β” value was 48.
As for `O=C1NC(=O)C(c2c3n(c4ccccc24)CC[C@H](CO)C3)=C1Nc1ccc(F)cc1`, the IC50 was determined as 1450 nM at PKC α and 15 nM on PKC β II. For the same molecule, at PKC β II, the “Ratio α/β” value is recorded as 97.
On to `O=C1NC(=O)C(c2c3n(c4ccccc24)CC[C@H](CO)C3)=C1Nc1ccccc1`, for which, on PKC α, the half-inhibitory concentration (IC50) was 394 nM. The “Ratio α/β” value on PKC β II is 66.
Regarding `CN(C)CC1CCCn2c(c(C3=C(Nc4ccccc4)C(=O)NC3=O)c3ccccc32)C1` (stereo not shown), the IC50 on PKC α was over 10000 nM. At PKC β II, the “Ratio α/β” value is on record as 147 and the IC50 was 68 nM.
Take `O=C1NC(=O)C(c2c3n(c4ccccc24)CC[C@H](CN2CCCCC2)C3)=C1Nc1ccccc1`: the concentration for half-maximal inhibition (IC50) on PKC α was 275 nM. At PKC β II, the “Ratio α/β” value is listed as 69 and the IC50 is 4 nM.

Values taken from patent EP1120414A1, “DISUBSTITUTED MALEIMIDE COMPOUNDS AND MEDICINAL UTILIZATION THEREOF” (Japan Tobacco Inc., priority 1998, dated 2000).
